In the test the target is Histamine H3 receptor (Homo sapiens, UniProt Q9Y5N1). Description: Displacement of [3H]N-alpha-methylhistamine from human histamine H3 receptor expressed in SK-N-MC cells. It counts as cell-based. In outline: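 Membranes prepared from SK-N-MC cells expressing human H3 receptor, homogenized in 50 mM Tris/5 mM EDTA, pH 7.4. Incubated with 0.8 nM [3H]-N-alpha-methylhistamine ± compound, 60 min, 25 °C. Filtration over polyethylenimine-treated glass fiber filters with four ice-cold washes. Nonspecific binding defined with 10 µM histamine.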
For orientation: In a radioligand displacement assay an active substance lowers the binding of a labelled ligand.

Sequences of proteins named here, by UniProt entry; tags and fusion partners are left off. A change or cut given only in a name is not applied to a line headed by its entry.
UniProt Q9Y5N1: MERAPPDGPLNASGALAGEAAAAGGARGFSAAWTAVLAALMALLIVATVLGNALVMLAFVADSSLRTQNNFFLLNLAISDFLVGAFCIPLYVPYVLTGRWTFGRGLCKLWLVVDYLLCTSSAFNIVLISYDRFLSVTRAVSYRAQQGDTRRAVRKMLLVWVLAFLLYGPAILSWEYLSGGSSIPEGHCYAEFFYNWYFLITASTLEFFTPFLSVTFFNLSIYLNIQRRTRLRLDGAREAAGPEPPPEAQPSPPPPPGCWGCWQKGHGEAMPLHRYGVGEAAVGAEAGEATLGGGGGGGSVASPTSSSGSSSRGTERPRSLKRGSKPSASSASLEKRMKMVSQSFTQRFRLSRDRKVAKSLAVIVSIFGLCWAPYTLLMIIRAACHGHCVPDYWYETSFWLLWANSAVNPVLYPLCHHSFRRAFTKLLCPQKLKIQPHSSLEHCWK

Here are results for one molecule from ChEMBL document CHEMBL1154085, “Diamine-based human histamine H3 receptor antagonists: (4-aminobutyn-1-yl)benzylamines” (Eur J Med Chem, 2009).

For `C(#Cc1ccccc1)CCN1CCCCC1`, affinity was put at a Ki of 56.2 nM.

By Ki is commonly meant the dissociation constant of the complex between target and ligand, obtained from inhibition or displacement.
